From patent publication US7259166B2, “Substituted-cycloalkyl and oxygenated-cycloalkyl glucokinase activators” (Hoffmann-La Roche Inc., priority 2002, dated 2007) come the findings set out here.

Structures are written as SMILES.

The test system of the assay is C57BL/6J mice. Briefly: Glucokinase activator in vivo screen (blood glucose after oral dosing). Conditions: oral gavage 50 mg/kg, two hour fast, blood glucose at 1, 2, 4 and 6 hours post dose. Here is the method: Glucokinase Activator In Vivo Screen Protocol
C57BL/6J mice are orally dosed via gavage with Glucokinase (GK) activator at 50 mg/kg body weight following a two hour fasting period. Blood glucose determinations are made five times during the six hour post-dose study period.
Mice (n=6) are weighed and fasted for a two hour period prior to oral treatment.

Consider `CS(=O)(=O)c1ccc([C@@H](CC2CCC(=O)C2)C(=O)Nc2cnccn2)cc1Cl` (stereo partly drawn) [Example 46, 2(R)-(3-Chloro-4-methanesulfonyl-phenyl)-3-(3-oxo-cyclopentyl)-N-pyrazin-2-yl-propionamide], for which the “glucokinase activator in vivo activity when administered orally (decrease in blood glucose compared to vehicle)” value is reported as “excellent glucokinase activator in vivo activity”.
Then `CS(=O)(=O)c1ccc([C@@H](C[C@H]2CCC(=O)C2)C(=O)Nc2cnccn2)cc1Cl` [Example 48, 2(R)-(3-Chloro-4-methanesulfonyl-phenyl)-3-((R)-3-oxo-cyclopentyl)-N-pyrazin-2-yl-propionamide], with “excellent glucokinase activator in vivo activity”.
